According to patent US20180306789A1 (published 2018):
One block for each binder: values may come before it.

Target: T1, NYESO1-001 (peptide code; control peptide) peptide on HLA-A*02:01 (human)
T1 peptide: SLLMWITQV
Assay: multimer staining

binding result: no recognition
B1: R53P2A9 (TCR, V domains shown)
Valpha: AQTVTQSQPEMSVQEAETVTLSCTYDTSESDYYLFWYKQPPSRQMILVIRQEAYKQQNATENRFSVNFQKAAKSFSLKISDSQLGDAAMYFCAYNSYAGGTSYGKLTFGQGTILTVHP
Vbeta: DAGVTQSPTHLIKTRGQQVTLRCSPISGHKSVSWYQQVLGQGPQFIFQYYEKEERGRGNFPDRFSARQFPNYSSELNVNALLLGDSALYLCASSLDGTSEQYFGPGTRLTVT

binding result: no recognition
B2: R52P2G11 (TCR, V domains shown)
Valpha: KNQVEQSPQSLIILEGKNCTLQCNYTVSPFSNLRWYKQDTGRGPVSLTIMTFSENTKSNGRYTATLDADTKQSSLHITASQLSDSASYICVVSAYGKLQFGAGTQVVVTP
Vbeta: DAGVIQSPRHEVTEMGQEVTLRCKPISGHNSLFWYRQTMMRGLELLIYFNNNVPIDDSGMPEDRFSAKMPNASFSTLKIQPSEPRDSAVYFCASSLGSPDGNQPQHFGDGTRLSIL
